The conditions of this data set: injected close to the diseased locus.

The values that follow come from US20220016272A1, “COMPOSITIONS, METHODS AND KITS FOR DIAGNOSING AND TREATING CD206 EXPRESSING CELL-RELATED DISORDERS” (Cardinal Health 414, LLC, priority 2013, published 2022).

On to “dextran 3-[(2-aminoethyl)thio]propyl 17-carboxy-10,13,16-tris (carboxymethyl)-8-oxo-4-thia-7,10,13,16-tetraazaheptadec-1-yl 3-[[2-[[1-imino-2-(D-mannopyranosylthio) ethyl]aminolethyllthiolpropyl ether complexes [tilmanocept]”, for which the “injection site clearance attributed to small diameter” value is reported as “rapid injection site clearance”.
